Experimental data: the CATMoS acute toxicity set (Mansouri et al. 2021)

Experiment: rat acute oral toxicity
Details: in vivo

N#CC(C#N)=Cc1ccccc1Cl
LD50: 178 mg/kg

Some results for these compounds are left out of this collection, so the calls shown say nothing about other tests.
